Patent US6911478B2, “Nitric oxide-releasing amidine- and enamine-derived diazeniumdiolates, compositions and uses thereof and method of making same” (The United States of America as represented by the …, priority 1997, dated 2005)

Assay: production of NO and N2O by amidine/nitric oxide adducts, headspace chemiluminescence (NO) and gas chromatography (N2O)
Assay type: physicochemical
Details: pH 7.4 buffer, gas chromatography
Text: Nitrous oxide (N2O), being the end product of HNO dimerization and dehydration, provided a measure of HNO production via the equation (Nagasawa et al., J. Med. Chem. 33: 3122-3124 (1990)): [drawing 12]
This example describes the measurement of the production of NO and N2O by amidine/nitric oxide adducts.

## tetrahydrozoline bis(nitric oxide)adduct [Example 6]
  Yield N2O: 0.4 moles per mole cmpd
